Reference: patent publication US8623883B2, “4-phenylamino-quinazolin-6-yl-amides” (Warner-Lambert Company LLC, priority 2004, dated 2014)

Amino acid sequences for entries named in this document (tags omitted). Residues count along the entry.
UniProt Q15303, 26-1308 limits assumed: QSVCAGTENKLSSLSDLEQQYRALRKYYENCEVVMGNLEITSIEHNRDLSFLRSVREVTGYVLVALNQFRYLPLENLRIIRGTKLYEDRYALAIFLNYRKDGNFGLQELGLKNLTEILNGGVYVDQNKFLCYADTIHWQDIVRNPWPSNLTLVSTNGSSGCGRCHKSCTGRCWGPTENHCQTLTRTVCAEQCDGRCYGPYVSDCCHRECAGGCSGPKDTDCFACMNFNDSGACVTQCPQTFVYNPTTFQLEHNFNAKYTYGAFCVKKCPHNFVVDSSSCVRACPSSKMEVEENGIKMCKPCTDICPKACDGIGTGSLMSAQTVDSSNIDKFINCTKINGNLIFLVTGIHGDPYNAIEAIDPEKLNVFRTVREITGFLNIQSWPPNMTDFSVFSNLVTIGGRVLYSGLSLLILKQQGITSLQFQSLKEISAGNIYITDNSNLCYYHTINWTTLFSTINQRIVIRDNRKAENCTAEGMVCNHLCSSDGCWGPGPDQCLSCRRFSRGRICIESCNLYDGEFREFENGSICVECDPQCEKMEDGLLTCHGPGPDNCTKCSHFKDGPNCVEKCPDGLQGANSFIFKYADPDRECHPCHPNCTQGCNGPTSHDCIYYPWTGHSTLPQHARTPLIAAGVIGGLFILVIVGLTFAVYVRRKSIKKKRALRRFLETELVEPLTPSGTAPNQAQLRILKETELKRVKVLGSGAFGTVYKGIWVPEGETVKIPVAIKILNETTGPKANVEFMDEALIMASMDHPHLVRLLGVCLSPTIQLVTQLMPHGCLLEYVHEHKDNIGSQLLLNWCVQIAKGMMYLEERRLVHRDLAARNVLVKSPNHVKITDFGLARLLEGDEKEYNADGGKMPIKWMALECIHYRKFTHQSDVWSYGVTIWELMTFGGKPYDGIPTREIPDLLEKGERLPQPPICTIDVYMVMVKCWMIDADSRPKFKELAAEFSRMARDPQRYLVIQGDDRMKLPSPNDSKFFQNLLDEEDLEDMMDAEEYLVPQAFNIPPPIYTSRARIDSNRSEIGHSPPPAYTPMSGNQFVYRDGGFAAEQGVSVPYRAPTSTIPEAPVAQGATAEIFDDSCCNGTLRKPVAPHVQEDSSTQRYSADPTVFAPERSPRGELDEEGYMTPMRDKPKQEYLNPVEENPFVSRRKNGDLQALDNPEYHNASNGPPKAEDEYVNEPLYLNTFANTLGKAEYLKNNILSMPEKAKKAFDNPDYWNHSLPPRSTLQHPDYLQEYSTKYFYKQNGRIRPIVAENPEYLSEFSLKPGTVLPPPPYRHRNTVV

Molecular target: ErbB4 (Homo sapiens, UniProt Q15303)
Assay: ELISA-based erbB kinase assay (ErbB4)
Format: biochemical
Details: GST-erbB4 cytoplasmic fusion protein, 20 uM ATP, poly-Glu-Tyr substrate
Description: ErbB1, erbB2 and erbB4 cytoplasmic fusion proteins were made by cloning the erbB1 sequence (Met-668 to Ala1211), erbB2 (Ile-675 to Val-1256) and erbB4 sequence (Gly-259 to Gly-690) into the baculoviral vector pFastBac using Polymerase Chain Reaction (PCR). Proteins were expressed in Baculovirus-infected Sf9 insect cells as Glutathione S-Transferase (GST) fusion proteins. The proteins were purified by affinity chromatography using glutathione sepharose beads.
Inhibition of erbB tyrosine kinase activity was assessed using an ELISA-based receptor tyrosine kinase assay. Kinase reactions (50 mM HEPES, pH 7.4, 125 mM NaCl, 10 mM MgCl2, 100 μM sodium orthovanadate, 2 mM dithiothreitol, 20 uM ATP, test compound or vehicle control and 1-5 nM GST-erbB per 50 uL reaction) were run in 96-well plates coated with 0.25 mg/ml poly-Glu-Tyr (Sigma). The reactions were incubated for 6 minutes at room temperature while shaking. […] Phosphorylated tyrosine residues were detected by adding 0.2 μg/ml anti-phosphotyrosine antibody (Oncogene Ab-4; 50 μL/well) coupled to Horse Radish Peroxidase (HRP) for 25 minutes while shaking at room temperature. […] The signal was quantified by measuring absorbance at 450 nm. IC50 values were determined for test compounds using Microsoft Excel.

COc1cc2ncnc(Nc3ccc(F)c(Cl)c3)c2cc1NC(=O)/C=C/CN1CCCCC1 [Example No. 2, 4-Piperidin-1-yl-but-2-enoic acid [4-(3-chloro-4-fluoro-phenylamino)-7-methoxy-quinazolin-6-yl]-amide]
IC50: 83.7 nM
